The term Kd denotes the equilibrium constant for the complex coming apart. Higher therefore signals lower affinity.

Sequences of proteins named here, by UniProt entry; tags and fusion partners are left off.
UniProt Q9HB90, whole entry: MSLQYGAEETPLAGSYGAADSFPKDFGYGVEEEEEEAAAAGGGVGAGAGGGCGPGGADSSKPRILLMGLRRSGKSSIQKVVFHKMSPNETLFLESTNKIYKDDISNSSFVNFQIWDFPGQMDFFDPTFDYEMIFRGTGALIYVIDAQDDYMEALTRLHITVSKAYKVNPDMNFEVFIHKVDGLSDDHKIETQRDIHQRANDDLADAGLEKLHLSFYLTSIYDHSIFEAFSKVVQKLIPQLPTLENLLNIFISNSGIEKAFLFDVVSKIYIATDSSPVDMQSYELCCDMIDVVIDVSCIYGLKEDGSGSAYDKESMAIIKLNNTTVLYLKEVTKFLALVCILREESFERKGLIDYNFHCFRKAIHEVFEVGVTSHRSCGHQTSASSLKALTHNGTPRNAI
UniProt Q7L523, whole entry, chain 1 of 2: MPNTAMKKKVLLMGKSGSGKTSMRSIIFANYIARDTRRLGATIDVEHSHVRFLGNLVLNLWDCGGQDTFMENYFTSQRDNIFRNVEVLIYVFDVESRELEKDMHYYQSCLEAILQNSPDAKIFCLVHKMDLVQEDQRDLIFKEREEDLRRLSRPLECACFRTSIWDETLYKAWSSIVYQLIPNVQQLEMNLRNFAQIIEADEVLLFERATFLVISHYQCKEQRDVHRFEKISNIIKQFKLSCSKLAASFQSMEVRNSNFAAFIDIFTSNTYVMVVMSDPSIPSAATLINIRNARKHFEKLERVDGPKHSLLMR

The target in the first test is RagC GTPase (UniProt Q9HB90). Kind of test: SPR; linear peptide designs tested on RagC; Kd and Rmax from sensorgrams; who was immobilised and the conditions are not told in what was shown (methods in Appendix E).
“Peptide 19 (BoltzGen linear peptide design against RagC)”: the Kd worked out at 268 µM.

In turn, “Peptide 18 (BoltzGen linear peptide design against RagC)” came in with a Kd of 893 µM.

For “Peptide 20 (BoltzGen linear peptide design against RagC)”, the Kd turned out to be 3.5 µM.

For the substance “Peptide 13 (BoltzGen linear peptide design against RagC)”, the Kd was found to be 117 µM.

Take “Peptide 6 (BoltzGen linear peptide design against RagC)”: the Kd was 60 µM.

As for “Peptide 23 (BoltzGen linear peptide design against RagC)”, the dissociation constant (Kd) came out at 268 µM.

On to “Peptide 29 (BoltzGen linear peptide design against RagC)”, for which the Kd was found to be 373 µM.

The next test deals with RagA:RagC dimer (UniProt Q7L523). Kind of test: SPR; disulfide-bonded cyclic peptide designs tested on the RagA:RagC dimer; Kd and Rmax from sensorgrams; who was immobilised and the conditions are not told in what was shown (methods in Appendix E). Background: In SPR one partner is held on a chip, and binding of the other changes the refractive index at the surface.
Take “Peptide 14 (BoltzGen disulfide-bonded cyclic peptide design against RagA:RagC)”: the Kd worked out at 297 µM.

“Peptide 7 (BoltzGen disulfide-bonded cyclic peptide design against RagA:RagC)”: the Kd was 308 µM.

“Peptide 8 (BoltzGen disulfide-bonded cyclic peptide design against RagA:RagC)” yielded a Kd of 318 µM.

Substance “Peptide 22 (BoltzGen disulfide-bonded cyclic peptide design against RagA:RagC)” gave an equilibrium dissociation constant (Kd) of 274 µM.

“Peptide 12 (BoltzGen disulfide-bonded cyclic peptide design against RagA:RagC)” returned a Kd of 1100 µM.

Substance “Peptide 16 (BoltzGen disulfide-bonded cyclic peptide design against RagA:RagC)” registered a Kd of 164 µM.

Turning to “Peptide 18 (BoltzGen disulfide-bonded cyclic peptide design against RagA:RagC)”, the Kd was found to be 80 µM.

“Peptide 11 (BoltzGen disulfide-bonded cyclic peptide design against RagA:RagC)” displayed a Kd of 447 µM.
